The list shows a part of the results, in another mix than the full data. Activity calls are given as the source filed them. Calls follow the shape of the dose curve; as a rule, active = well fitted activation curve with a large enough effect; inconclusive = small, poorly fitted or top-dose-only effect; inactive = no such curve, though single readings can be large or run the other way.

Sequences of proteins named here, by UniProt entry; tags and fusion partners are left off. A change or cut given only in a name is not applied to a line headed by its entry.
UniProt P43220, whole entry, stated change not applied: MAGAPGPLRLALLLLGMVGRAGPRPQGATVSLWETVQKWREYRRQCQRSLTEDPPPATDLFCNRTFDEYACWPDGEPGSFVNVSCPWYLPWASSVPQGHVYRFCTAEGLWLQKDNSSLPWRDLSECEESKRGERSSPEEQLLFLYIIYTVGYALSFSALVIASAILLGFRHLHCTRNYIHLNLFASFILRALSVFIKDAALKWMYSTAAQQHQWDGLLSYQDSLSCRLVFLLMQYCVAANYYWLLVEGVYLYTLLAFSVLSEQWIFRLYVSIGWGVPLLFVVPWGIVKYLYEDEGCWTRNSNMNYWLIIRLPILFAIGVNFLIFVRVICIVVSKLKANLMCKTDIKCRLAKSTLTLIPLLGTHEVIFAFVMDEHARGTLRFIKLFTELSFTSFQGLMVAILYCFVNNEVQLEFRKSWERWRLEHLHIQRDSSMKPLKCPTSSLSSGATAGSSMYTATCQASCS

The target of the experiment is Glucagon-like peptide 1 receptor (Homo sapiens) (UniProt P43220). The experiment in a line: qHTS of GLP-1 Receptor Agonists. Also: % of control where 0% means no effect. The note with it: HEK293 GLP-1R CRE-luciferase, luminescence, 4-6 h, cells express a hypersensitive GLP-1R form; at 45.6 µM (top of the series). From the text:
The overall goal of this project was to develop a novel assay for discovering small molecule ligands for class B1 G protein-coupled receptors (GPCRs). Very few agonists (or inverse agonists) with generally weak activity for this entire group of physiologically important receptors are known to date. To establish proof-of-principle that this critical bottleneck can be overcome with a suitable screening approach, our studies focused on the class B1 receptor for glucagon-like peptide-1 (GLP-1R), a potential therapeutic target for diabetes and neurodegenerative disease.
The assay was developed in a "mix and measure" format using a cell-based functional readout. Toward this goal, stably transfected HEK293 cell clones were established that co-express (i) a cAMP-responsive luciferase reporter gene, and (ii) GLP-1Rs that upon ligand interaction either stimulate (agonists) or inhibit (inverse agonists) luciferase activity. In different cell lines to be used for screening, expressed GLP-1Rs are specifically optimized for high sensitivity detection of either weak agonists (hypersensitive receptor) or inverse agonists (constitutively active receptor mutant). In addition, control cell lines were developed that express either the cAMP-responsive reporter gene without recombinant GLP-1Rs (enabling initial exclusion of GLP-1R independent effects of candidate probes), or the reporter gene together with wild type GLP-1Rs (for confirmation of probe activity at this receptor), or the reporter gene in combination with the constitutively active orphan receptor GPR119 (enabling initial exclusion of GLP-1R independent inhibitory effects of candidate inverse agonists).
To that end, this assay was optimized for 1536-well format and screened against the MLSMR.
NIH Molecular Libraries Probe Production Network [MLPCN]
NIH Chemical Genomics Center [NCGC]
PI Name: Martin Beinborn, Tufts Medical Center
In a white solid 1536-well plate, 6 uL of cells are dispensed in DMEM without phenol red, 10% Nu serum, and 1% pen-strep medium. The plates are then incubated for 12 hours at 37 deg C at 5% CO2 before 23 nL of compounds are added. After a 4-6 hr incubation at37 deg C and 5% CO2, 3 uL of detection reagent are added and after a 12 min incubation at RT, a luminescent read is obtained on the ViewLux.
On the technique in general: In qHTS, concentration-response curves come from the screen itself.
As to `CN(C)c1ccc(C(=O)NCC2(N3CCCCC3)CCCCC2)cc1`, the activation was inactive: 4.31%.

As to `Cn1c(=O)[nH]cc(N(CCCl)CCCl)c1=O`, the activation was inactive: -1.28%. As for `O=C(NCC1(N2CCCCC2)CCCCC1)c1ccco1`, the activation was inactive: 6.69%. `CC(C)(C)c1ccc(C(=O)NCC2(N3CCOCC3)CCCCC2)cc1`: the activation was inactive: -3.72%. With `CN1CCC(Nc2ccc(F)c(Cl)c2)CC1`, the activation is inactive: -4.36%. To `CCOc1ncccc1C(=O)NCC1(N2CCOCC2)CCCCC1` belongs inactive: 0.638%; to `O=C(O)C1(Nc2ccccc2)CCN(Cc2ccccc2)CC1`, inactive: 9.46%. To `NN(c1ccccc1)C1CCN(CCc2ccccc2)CC1` belongs inactive: -3.2%; to `CC(C)(C)OC(=O)N1CCC(Nc2ccccc2)CC1`, inactive: 12.3%.

For the molecule `O=c1[nH]c2ccccc2n1C1CCN(C(c2cc3ccccc3o2)c2nnnn2C2CCCC2)CC1` (stereo not drawn), the activation is inactive: -3.4%. As for `CCCOc1ccc(C(=O)NCC2(N(C)C)CCCCC2)cc1`, the figure is inactive: -1.63%. As for `COc1cc(C(=O)NCC2(N3CCOCC3)CCCCC2)cc(OC)c1OC`, the figure is inactive: 4.74%.

Take `COc1cc(OC)cc(C(=O)NCC2(N3CCOCC3)CCCCC2)c1`: the activation was inactive: 3.18%.

Consider `COc1cccc(C(c2nnnn2C2CCCC2)N2CCC(n3c(=O)[nH]c4ccccc43)CC2)c1OC` (stereo not drawn), for which the activation was inactive: 1.69%.

For `COc1cccc(C(=O)N(c2cc(C)cc(C)c2)C2CCN(C(=O)OC(C)(C)C)CC2)c1`, the activation was inactive: 5.93%. As for `CCC(CO)(C(=O)OC1CN2CCC1CC2)c1ccccc1` (stereo not drawn), the figure is inactive: 0.581%. For `CN1CCC(Nc2ccc(Cl)cc2)CC1`, the activation is inactive: 5.23%. `COc1cc(C(=O)NCC2(N3CCOCC3)CCCCC2)cc(OC)c1C`: the activation is inactive: 24.4%. On to `CCCCn1nnnc1C(c1ccccc1)N1CCC(n2c(=O)[nH]c3ccccc32)CC1` (stereo not drawn), for which the activation is inactive: 5.86%.

For `O=C(NCC1(N2CCOCC2)CCCCC1)c1cc(Br)ccc1Cl`, the activation is inactive: -0.0839%. To `O=c1[nH]c2ccccc2n1C1CCN(C(c2cccs2)c2nnnn2C2CCCCC2)CC1` (stereo not drawn) belongs inactive: 0.138%; to `O=c1[nH]c2ccccc2n1C1CCN(C(c2ccnc3ccccc23)c2nnnn2C2CCCC2)CC1` (stereo not drawn), inactive: 20.7%; to `COc1ccc(C(=O)NCC2(N3CCOCC3)CCCCC2)cc1OC`, inactive: -0.182%. To `CCOC(=O)N1CCC(Nc2ccc(C)cc2)CC1` belongs inactive: -6.2%; to `COc1cccc(C(c2nnnn2C(C)(C)C)N2CCC(n3c(=O)[nH]c4ccccc43)CC2)c1OC` (stereo not drawn), inactive: 0%; to `N/C(=N\O)c1c(N)no[n+]1[O-]`, inactive: -6.83%. In the case of `O=c1[nH]c2ccccc2n1C1CCN(C(c2cccs2)c2nnnn2C2CCCC2)CC1` (stereo not drawn), the activation is inactive: -1.43%. Consider `O=C(O)c1cccc(Nc2c([N+](=O)[O-])cc([N+](=O)[O-])cc2[N+](=O)[O-])c1`, for which the activation was inactive: -1.26%. As for `CCc1cc(C(=O)NCC2(N3CCCCC3)CCCCC2)sc1C`, the figure is inactive: 12.4%; as for `O=C(OC1CN2CCC1CC2)C1c2ccccc2C=Cc2ccccc21` (stereo not drawn), inactive: -4.18%. On to `CCCCn1nnnc1C(c1cccc(OC)c1OC)N1CCC(n2c(=O)[nH]c3ccccc32)CC1` (stereo not drawn), for which the activation was inactive: -3.41%. As for `N#Cc1ccc(C(=O)NCC2(N3CCCCC3)CCCCC2)cc1`, the figure is inactive: 2.28%; as for `O=C(NCC1(N2CCOCC2)CCCCC1)c1ccccc1[N+](=O)[O-]`, inactive: -8.62%.

For `CC(C)(C)OC(=O)N1CCC(N(C(=O)c2ccccc2)c2ccc(Cl)cc2)CC1`, the activation was inactive: 0.324%. As for `O=C(NCC1(N2CCOCC2)CCCCC1)c1ccc([N+](=O)[O-])cc1`, the figure is inactive: -1.85%; as for `CCOC(=O)C(CC)C1=NC(C)(C)Cc2ccccc21.O=[N+]([O-])c1cc([N+](=O)[O-])c(O)c([N+](=O)[O-])c1` (stereo not drawn), inactive: -1.02%.

Take `CN(C)C1(CNC(=O)c2cccc(C#N)c2)CCCCC1`: the activation was inactive: 1.95%.

Consider `O=c1[nH]c2ccccc2n1C1CCN(C(c2ccccc2)c2nnnn2C2CCCC2)CC1` (stereo not drawn), for which the activation was inactive: 6.29%. On to `CCCN1CCC(Nc2cc(OC)cc(OC)c2)CC1`, for which the activation is inactive: -3.35%.

Turning to `O=C(NCC1(N2CCOCC2)CCCCC1)c1ccccc1`, the activation was inactive: 4.2%. In the case of `Cc1cc(N(CCCl)CCCl)ccc1C=O`, the activation was inactive: 9.97%. Turning to `c1ccc(CN2CCC(Nc3ccccc3)CC2)cc1`, the activation was inactive: -6.18%. On to `CC(C)(C)n1nnnc1C(c1cccc2ccccc12)N1CCC(n2c(=O)[nH]c3ccccc32)CC1` (stereo not drawn), for which the activation was inactive: -0.679%.

These data come from PubChem BioAssay AID624172 (National Center for Advancing Translational Sciences (NCATS), 2012).
